For 1 compound, IC50 results are on record in PMC6131351, “Pharmacological difference between degrader and inhibitor against oncogenic BCR-ABL kinase” (Scientific Reports, 2018).

The subject of the experiment is Jurkat cells. In words: WST cell growth inhibition, Jurkat (BCR-ABL negative). The class given is cell-based. The following applies: Homo sapiens, 48 h, WST assay, means ± SD (n = 3).

Broadly, the IC50 is the concentration that inhibits the measured activity by half. A high value points to weaker potency. In turn, `Cc1nc(Nc2ncc(C(=O)Nc3c(C)cccc3Cl)s2)cc(N2CCN(CCO)CC2)n1` [Dasatinib, dasatinib, reference compound] gave an IC50 of 6.79 ± 1.49 µM.
